Measured values published in PubChem BioAssay AID624417 (National Center for Advancing Translational Sciences (NCATS), 2012).
The list shows a part of the results, in another mix than the full data. Records with an inconclusive call do not appear. The source made the active and inactive calls. Calls come from the whole dose curve; as a rule, active = well fitted inhibition curve with a large enough effect; inconclusive = small, poorly fitted or top-dose-only effect; inactive = no such curve, though single readings can be large or run the other way.

By UniProt entry, the sequences of proteins in these tests, tags left out.
UniProt P43220, whole entry: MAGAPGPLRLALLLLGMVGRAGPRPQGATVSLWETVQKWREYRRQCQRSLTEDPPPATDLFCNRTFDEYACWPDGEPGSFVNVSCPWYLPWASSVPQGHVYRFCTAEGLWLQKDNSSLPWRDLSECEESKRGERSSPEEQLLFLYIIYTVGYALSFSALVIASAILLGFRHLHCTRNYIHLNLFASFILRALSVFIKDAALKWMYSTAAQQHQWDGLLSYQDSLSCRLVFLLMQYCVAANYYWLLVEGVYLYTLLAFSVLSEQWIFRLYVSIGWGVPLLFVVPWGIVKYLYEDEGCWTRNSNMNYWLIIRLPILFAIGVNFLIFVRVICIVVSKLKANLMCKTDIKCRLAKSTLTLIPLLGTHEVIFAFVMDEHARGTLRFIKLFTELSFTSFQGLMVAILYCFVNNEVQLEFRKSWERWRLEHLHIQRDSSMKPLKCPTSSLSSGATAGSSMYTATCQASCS

The compounds below were run against Glucagon-like peptide 1 receptor (Homo sapiens) (UniProt P43220) (assay: qHTS of GLP-1 Receptor Inverse Agonists (Inhibition Mode)). Settings: HEK293 GLP-1R CRE-luciferase, luminescence, 24 h, GLP-1R form is constitutively active; at 38.3 µM (top of the series).
% is set by controls: 0 for no effect and ±100 for the full control effect.
Note: nearly all actives have a fitted effect of over 55% in size.

| SMILES | activity change, negative = inhibition |
| --- | --- |
| CCC(=O)N(c1ccccc1)C1(COC)CCN(CCn2nnn(CC)c2=O)CC1 | inactive: -3.68% |
| CCC(=O)N(c1ccccc1)C1(COC)CCN(CCc2cccs2)CC1 | inactive: -28.5% |
